The assay in a line: Selectivity index, ratio of IC50 for PAD2 (unknown origin) to IC50 for PAD4 (unknown origin).

SMILES strings stand for the structures.

The text below walks through data of ChEMBL document CHEMBL5506043, “A β-Carboline Derivate PAD4 Inhibitor Reshapes Neutrophil Phenotype and Improves the Tumor Immune Microenvironment against Triple-Negative Breast Cancer” (J Med Chem, 2024).

As for `CN(C)c1ccc2cc(C(=O)N[C@@H](CCCNC(=N)CCl)C(=O)NCc3ccccc3)ccc2c1`, the Ratio IC50 was 1.5.
Regarding `N=C(CCl)NCCC[C@H](NC(=O)c1cc2c([nH]c3ccccc32)c(-c2ccccc2)n1)C(=O)NCc1ccccc1`, the Ratio IC50 worked out at 3.8.
